Results on 1 compound are retold here after PubChem BioAssay AID624330 (Southern Research Specialized Biocontainment Screening …, 2012).

By UniProt entry, the sequences of proteins in these tests, tags left out.
UniProt Q9H0H5, whole entry: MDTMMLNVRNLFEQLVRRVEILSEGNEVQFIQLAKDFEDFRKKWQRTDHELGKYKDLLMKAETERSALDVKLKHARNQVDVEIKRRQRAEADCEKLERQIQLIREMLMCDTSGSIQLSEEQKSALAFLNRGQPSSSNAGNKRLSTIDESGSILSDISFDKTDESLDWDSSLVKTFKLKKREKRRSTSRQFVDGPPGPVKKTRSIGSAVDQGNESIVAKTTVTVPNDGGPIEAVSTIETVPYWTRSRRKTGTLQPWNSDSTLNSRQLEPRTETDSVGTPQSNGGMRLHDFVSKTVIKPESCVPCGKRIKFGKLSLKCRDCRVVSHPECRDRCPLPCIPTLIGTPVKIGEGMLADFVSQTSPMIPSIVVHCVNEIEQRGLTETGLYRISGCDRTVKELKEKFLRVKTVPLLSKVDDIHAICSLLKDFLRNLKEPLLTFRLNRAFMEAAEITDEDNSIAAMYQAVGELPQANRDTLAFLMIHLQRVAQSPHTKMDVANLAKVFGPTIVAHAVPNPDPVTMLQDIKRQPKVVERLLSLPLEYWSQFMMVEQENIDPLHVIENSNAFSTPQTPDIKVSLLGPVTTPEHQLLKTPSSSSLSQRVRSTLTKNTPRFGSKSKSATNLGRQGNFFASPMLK

What is called inhibition is the percentage by which the read-out fell short of the control.

The list shows a part of the results, in another mix than the full data. Potency and affinity values are given separately. Active and inactive are the calls of the source.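 How the source made its calls: active means first-screen hits whose inhibition reached a set limit at any dose in the follow-up dose series; inconclusive means inhibition above the set first-screen limit but never retested; inactive means the rest.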

In the assay the target is Rac GTPase-activating protein 1 (Homo sapiens) (UniProt Q9H0H5). Nature of the assay: MgcRacGAP GTPase-activating activity inhibitors, confirmation, biochemical, ADP Hunter fluorescence, primary and confirmatory (AID 624330).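 Further: fluorescence reports GDP produced by GAP-driven GTP hydrolysis.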 As to conditions: MgcRacGAP-stimulated Rac1 GTP hydrolysis, at 30 µM, hits give high values, GST-tagged Rac1 F28L mutant substrate.
For the compound `CP(=O)(Nc1cccc(Br)c1)Oc1ccccc1` (stereo unspecified), the inhibition is inactive: 13.2%.
